The EC50 is the concentration that produces a half-maximal response.

From patent US11617777B2, “Cytotoxic and anti-mitotic compounds, and methods of using the same” (ZYMEWORKS BC INC., priority 2013, dated 2023) come the findings set out here.

What all share (assay type): cell-based
One assay relates to Jurkat cells. The assay can be described thus: Cytotoxicity of compounds, CellTiter-Glo. The settings on record: Homo sapiens. The text has this: Cell lines used: Human T-cell leukemia cell line Jurkat (ATCC: TIB-152); HCC1954 (ATCC: CRL. 2338); Human Pancreatic cells lines: AsPC-1 (ATCC: CRL-1682), BxPC-3 (ATCC: CRL.1687), HPAF-II (ATCC: CRL.1997), MiaPaCa2 (ATCC: CRL.1420), PANC-1 (ATCC: CRL.1469), Capan-1 (ATCC: HTB-79), Capan-2 (ATCC: HTB-80) and the Human gastric carcinoma cell line NCI-N87 (ATCC: CRL. 5822); AML-193 (ATCC: CRL.9589), CCRF-CEM (ATCC: CCL-119), DU145 (ATCC: HTB-81), PC-3 (ATCC: CRL.1435), A-431 (ATCC: CRL.1555), HT-29 (ATCC: HTB-38), A-172 (ATCC: CRL.1620), NCI-H358 (ATCC: CRL.5807), A549 (ATCC: CCL-185), Colo-205 (ATCC: CCL-222), MDA-MB-231 (ATCC: HTB-26), OVCAR-3 (ATCC: HTB-161), OV-90 (ATCC: CRL.11732), OE19 (Sigma: 96071721), RT 112/84 (Sigma: 85061106).
(§1) On the day prior to adding compounds, HCC1954 AsPC-1, BxPC-3, HPAF-II, MiaPaCa2, PANC-1, Capan-1, Capan-2 and NCI-N87 cells were added to opaque-walled 96-well tissue culture-treated microtiter plates using complete growth medium at a density of 2500 cells/100 microlitre (uL) of medium. […] After the incubation, cell viability is measured using CellTiter-Glo® reagent by adding thirty uL of prepared CellTiter-Glo® to each assay well. The assay is incubated for at least twenty minutes in the dark prior to measuring emitted luminescence using a microplate luminometer (500 ms integration time). […]
A general note: ATP-based viability assays read luminescence as a measure of living cells.

Assay [1] relates to HCC1954 cells. The assay can be described thus: Cytotoxicity of compounds, CellTiter-Glo. The settings on record: Homo sapiens; Table 1; HCC1954 cells (HER2+), three nights. As to the method: (§2) FIG. 1 summarizes the data for compounds A, B, C, D, and E when tested using the Human mammary carcinoma cell line HCC1954 or Human T-cell leukemia cell line Jurkat. FIGS. 2-6 show the cytotoxicity data plots for individual compounds A-E. Tables 2-6 summarize the results of additional cytotoxicity assays. […]
as §1, with “time). The collected relative luminescence units (RLU) are converted to % cytotoxicity using the Growth medium alone control mentioned above (% Cytotoxicity=1−[Well RLU/average medium alone control RLU]).” for “time).”

The subject of another assay is A549. The assay can be described thus: Cytotoxicity on various cell lines. The settings on record: Homo sapiens, Table 8. As to the method: as §2
as §1, with “time). The collected relative luminescence units (RLU) are converted to % cytotoxicity using the Growth medium alone control mentioned above (% Cytotoxicity=1−[Well RLU/average medium alone control RLU]).” for “time).”

In assay [2] the test system is HCC1954 cells. The assay can be described thus: Cytotoxicity assay of SMCC- and LC-SPDP-linked ADCs and free compounds. The settings on record: Homo sapiens, HCC1954, Table 10, Coupling #2, read-out: HCC1954 Best-fit EC50. As for the experimental part: The purified ADCs were then analysed for: total protein content (BCA assay, Pierce microBCA protocol), relative affinity for antigen binding (equilibrium native binding), and selective cytotoxic killing of HER2-positive cells (HCC1954) compared HER2-negative cells (Jurkat).
On the day prior to adding test articles, HCC1954 cells were added to opaque-walled 96-well tissue culture-treated microtiter plates using complete growth medium at a density of 2500 cells/100 microlitre (uL) of medium. The HCC1954 cells were incubated for one night at 37° C./5% CO2 to allow the cells to attach to the microtiter plate surface. On the day that test articles were added, Jurkat cells are added to separate 96-well microtiter plates at 2500 cells/100 uL using the same growth medium as HCC1954. […] After the incubation, cell viability was measured using CellTiter-Glo® reagent by adding thirty uL of prepared CellTiter-Glo® to each assay well. The assay was incubated for at least twenty minutes in the dark prior to measuring emitted luminescence using a microplate luminometer (500 ms integration time). The collected relative luminescence units (RLU) were converted to % cytotoxicity using the Growth medium alone control mentioned above (% Cytotoxicity=1−[Well RLU/average medium alone control RLU]).

The compound `CN[C@H](C(=O)N[C@H](C(=O)N(C)[C@H](/C=C(\C)C(=O)NS(=O)(=O)c1ccc(C(=O)OC)cc1)C(C)C)C(C)(C)C)C(C)(C)c1ccccc1` [Compound 31, methyl 4-(N—((S,E)-2,5-dimethyl-4-((S)—N,3,3-trimethyl-2-((S)-3-methyl-2-(methylamino)-3-phenylbutanamido)butanamido)hex-2-enoyl)sulfamoyl)benzoate] showed an EC50 in the assay with Jurkat cells (Table 3, Cytotoxicity of Compounds on Jurkat Cells) of 0.094 nM.

On to `CN[C@H](C(=O)N[C@H](C(=O)N(C)[C@H](/C=C(\C)C(=O)NS(=O)(=O)c1ccc(C)cc1)C(C)C)C(C)(C)C)C(C)(C)c1ccccc1` [Compound D, (S,E)-2,5-dimethyl-N-tosyl-4-((S)—N,3,3-trimethyl-2-((S)-3-methyl-2-(methylamino)-3-phenylbutanamido)butanamido)hex-2-enamide], for which, in the assay with HCC1954 cells [1], the EC50 came to 0.061 nM.

As to `CN[C@H](C(=O)N[C@H](C(=O)N(C)[C@H](/C=C(\C)C(=O)NS(=O)(=O)Cc1ccccc1)C(C)C)C(C)(C)C)C(C)(C)c1ccccc1` [Compound 14, (S,E)-N-(benzylsulfonyl)-2,5-dimethyl-4-((S)—N,3,3-trimethyl-2-((S)-3-methyl-2-(methylamino)-3-phenylbutanamido)butanamido)hex-2-enamide], the EC50 with A549 was 0.86 nM; in the assay on Jurkat cells (Table 8) it was 0.068 nM.

Regarding `CN[C@H](C(=O)N[C@H](C(=O)N(C)[C@H](/C=C(\C)C(=O)NS(=O)(=O)CCCS)C(C)C)C(C)(C)C)C(C)(C)c1ccccc1` [Compound A, (S,E)-N-(3-mercaptopropylsulfonyl)-2,5-dimethyl-4-((S)—N,3,3-trimethyl-2-((S)-3-methyl-2-(methylamino)-3-phenylbutanamido)butanamido)hex-2-enamide], the EC50 in the assay on HCC1954 cells [2] and in the assay with HCC1954 cells [1] was 0.86 nM each time.
